Two compounds from patent publication US12121500B2, “Inhibitors of Bunyaviridae and uses thereof” (priority 2020, dated 2024) can be followed below.

Data set [1] has as its system HepDES19. Briefly: Cytotoxicity in HepDES19 cells, MTS assay. Particulars: read-out: CC50 HepDES19, 3 days, * marks limit value.
Data set [2] has as its target T1, human ribonuclease H1 (Homo sapiens, UniProt O60930).
T1 construct: made in house; host or cells: E. coli
T1 sequence (O60930 1-286): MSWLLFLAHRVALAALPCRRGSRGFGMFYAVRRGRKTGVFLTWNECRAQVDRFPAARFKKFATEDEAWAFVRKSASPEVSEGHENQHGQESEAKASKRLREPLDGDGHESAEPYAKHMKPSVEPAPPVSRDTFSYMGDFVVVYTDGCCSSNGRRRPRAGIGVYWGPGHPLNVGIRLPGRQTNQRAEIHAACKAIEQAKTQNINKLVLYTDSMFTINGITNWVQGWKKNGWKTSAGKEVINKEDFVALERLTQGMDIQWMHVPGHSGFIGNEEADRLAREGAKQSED
Put plainly: biochemical.

The term CC50 denotes the concentration that lowers cell viability or growth by half. As to `Cc1cc(O)c(=O)c(O)cc1S(=O)(=O)c1ccccc1` [Compound 336], in data set [1], the CC50 amounted to 45.4 µM.
By IC50 is commonly meant the point on the concentration scale where inhibition reaches its midpoint. Low readings indicate greater potency in that assay, high ones weaker potency in that assay. Regarding `CC(C)Sc1ccc(SC(C)C)c(O)c(=O)c1O` [Compound 696], in data set [2], the half-inhibitory concentration (IC50) is over 500 µM.
